## AlphaSeq binding of Ab-14 light chain variants to a spike HR2 peptide

Target: peptide PDVDLGDISGINAS, taken from heptad repeat 2 (HR2) of SARS-CoV-2 spike.

Ab-14 is the parent antibody, in scFv form: VH, then a 15-residue (Gly4Ser)3 linker, then VL. The heavy chain is unchanged in all variants.
VH: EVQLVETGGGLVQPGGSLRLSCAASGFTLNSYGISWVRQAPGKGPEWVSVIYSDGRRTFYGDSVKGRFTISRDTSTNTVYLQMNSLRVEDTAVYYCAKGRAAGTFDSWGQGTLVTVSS
VL: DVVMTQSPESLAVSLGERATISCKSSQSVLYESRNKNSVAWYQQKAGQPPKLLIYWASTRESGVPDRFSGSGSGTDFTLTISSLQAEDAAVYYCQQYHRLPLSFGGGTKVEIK

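Phage display of a naive human antibody library on the peptide gave the parent. These sequences belong to a second round, designed from the earlier measurements on random variants of the parent. Several design methods are mixed in this list. AlphaSeq pools MATa yeast showing the antibodies with MATalpha yeast showing the peptide. Binding brings cells together so that they mate, and sequencing counts the barcode pairs among the diploids. A regression on co-assayed BCL2-family reference pairs converts the normalised counts of each replicate to an apparent Kd. There are six technical replicates.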

The parent's light chain CDRs are KSSQSVLYESRNKNSVA, WASTRES, QQYHRLPLS; each variant's own CDRs replace them letter for letter. This list holds designs with more than six substitutions. Values are log10 of the apparent Kd in nM; lower means stronger binding. "nd" marks a missing value. The strain was present, yet no cells mated with the target were sequenced in that replicate, which points to weak or no binding. As a blank, each scFv also met three strains without target: over all light chain designs, 4% of these pairings were detected, typically at 2.64 and seldom below 1.59. Of ten entries with the parent sequence, four were seen in most replicates (averages 0.34 to 2.37), three in one and three in none, so single entries are noisy. The authors' rule: three or more of the six replicates give a measured affinity, fewer mean a poor binder. A sequence measured in both rounds can read differently, since the two assays cover different ranges.

* MISDLTMYGSRAKNSVA, DLSTRGS, QQYHRLPLS: 0.12, 0.35, -0.09, 0.17, -0.08, 0.36
* TLVQSVMSGSRTKNSVA, NAETRYD, QHYHRLPLS: 1.62, 1.32, 0.75, 0.97, 1.66, 1.40
* YFSEQYKTDREQQYSIA, GMDIREK, QQYGRLPLT: 1.53, nd, 1.23, 1.80, 2.17, 1.14
* STLSHEEESKGADASVA, EASMLES, QQYHRLPLD: 0.84, 1.32, 1.09, 0.94, 1.46, 1.21
* ALGDVTRMESNKKNSIA, DMSTREE, QQYHRLPLS: 0.87, 0.64, 0.17, 0.98, 1.28, 0.58
* SLTIYQDENGLQHQSIA, GAGLRML, QQYHRLPLT: 0.47, 0.54, -0.07, 0.60, 0.52, 0.42
* KMSQSQLYEERASNAVA, QASQRMS, QQYHRLPLS: 0.08, 0.04, 0.05, -0.16, -0.13, 0.27
* MISQLHNMGTFAINSVA, QASIRNA, QQYDRLPLA: 1.46, 1.31, 1.30, 1.08, 1.53, 1.56
* KITYVGESMHLKEDSIA, DQECRED, QQYDRLPLS: 2.55, nd, nd, nd, 2.01, 1.82
* MISQLYNMGQFIINSVA, QASLRCN, QQYDRLPLM: nd, nd, nd, nd, nd, nd
* HMSALTLMGSRNRNSVA, QMTTREN, QQYDRLPLA: nd, nd, nd, 3.17, nd, nd
* HITYGMQVAGRHSKSIA, QAEERAK, QQYDRLPLS: 0.34, 0.15, 0.15, 0.19, 0.18, 0.43
* MISQLFMYGSRNYNSVA, QASTRES, QQYHRLPLI: 0.87, 0.86, 0.82, 1.17, 1.61, 1.33
* KISMGIEMNTRQNHNMA, EASLKPS, QQYNRLPFF: -0.12, 0.06, 0.23, -0.34, -0.18, -0.07
* KLYQSEWYESRMCNSVA, NASVREC, QQYHRLPLS: 1.63, 1.23, 1.67, 1.22, 1.76, 1.59
* KLSQSQDYESRNSKSVA, DASTRLS, QQYHRLPLS: 0.07, -0.11, -0.21, -0.24, -0.17, 0.30
* HSSQSQDYESRNKNSVA, NASQRYQ, QQYHRLPLS: 0.24, -0.06, -0.25, -0.22, -0.03, -0.08
* KFEWSNGYESRNKNSVA, NASTRES, QQYWRLPLS: -0.04, -0.23, -0.54, -0.26, -0.28, -0.04
* KIGMTLNQLMHQKQNVA, DLVTREN, QQYHRLPLS: 0.42, -0.11, 0.18, 0.00, 0.10, 0.48
* MISQLYNMGSFAINSVA, QASIRNA, QQYDRLPLA: nd, 1.50, 1.21, 1.22, 1.11, 0.96
* HIDWYNRGETLKKDDIA, NATHREQ, QQYFHLPLI: 0.34, 0.33, 0.22, 0.15, 0.41, 0.70
* RVQMGDQPGKTARNNIA, DGEEGYR, QQYVRLPLS: 0.49, 0.53, 0.43, 0.35, 0.42, 0.51
* HMSESDHGHNAGVGNMA, NATESTE, QQYMHLPLS: 1.02, 0.73, 0.30, 0.24, 0.35, 0.67
* MMSMGYLQGMRAKNNVA, QEETRES, QQYHRLPLI: 0.82, 0.83, 1.90, 0.83, 0.85, 1.16
* KIELDLTRYNAGHAAIA, HETMKAQ, QQYSRLPLI: 1.00, 0.64, 0.76, 0.83, 1.10, 0.95
* TISQLTSSFSQNINNVA, EVSTRLN, QQYDRLPLA: 0.60, 1.03, 0.43, 0.35, 0.58, 0.68
* MIAESVGYQSRQKNSVA, DNSTRES, QCYDRLPLS: nd, 1.18, nd, nd, 1.53, nd
* KLGQLVGYEQRNKSRVA, DNSTRES, QQYDRLPLS: nd, nd, nd, nd, 4.03, 2.93
* KLYQVTTHHGATLNNIA, EGARRND, QQYARLPLV: 0.38, 0.23, 0.06, -0.05, 0.30, 0.06
* HISQMVMYGSCNKNNVA, QVSLRED, QQYHRLPLS: 0.56, 0.37, 0.86, 1.35, 1.30, 1.12
* TISQMSTLFSQSINNVA, EVSTRLN, QQYDRLPLM: 0.63, 0.66, 0.39, 0.36, 0.62, 0.74
* KSSLSVLYDSMNPNSVA, WASIRED, QQYHRLPLH: 2.40, 1.63, nd, 2.19, 1.14, 1.90
* MMSQVTGSGTRHRNNVA, QTSMREI, QQYDRLPLV: 0.28, 1.17, 0.57, 1.04, 0.02, 1.51
* KLSMSMLMESRHKNSVA, ENSTREE, QHYHRLPLS: nd, 1.41, 1.52, 1.16, 0.84, 1.40
* MLSDLVKMGSRNTNSVA, DNSMRGS, QQYDRLPLS: 1.06, 0.77, 0.32, 0.64, 0.69, 0.61
* KQDQSCGGEQRNKNSVA, SASTRCE, QQYHRLPLS: 0.87, 1.11, 0.68, 0.87, 0.70, 0.51
* TLMQVGGYEMNEHNSIA, DLRTREN, QQYHRLPLS: 2.90, 1.17, 1.16, 1.27, 1.08, 1.26
* KMWDYEYGTNAMNSSIA, NASLESD, QQYDRLPLA: nd, nd, nd, nd, nd, nd
* TVYESMDQAMRTHNSIA, DNQTRES, QQYDRLPLS: nd, nd, 2.02, 2.09, nd, 2.84
* QLDTGLQYMDANKNSVA, EMTEETT, QQYHRLPLE: nd, nd, nd, nd, nd, 2.47
* KGMGSMLYEQRMKNSVA, NASQRMS, QQYHRLPLS: 0.21, 0.24, 0.32, 0.10, -0.11, 0.38
* KLGMTLNQLMHKKNNVA, DLVERET, QQYFRLPLS: 0.55, 0.12, 0.47, 0.42, 0.32, 0.66
* KISQMVTYESTWHGAIA, QTSEREE, QQYHRLPFS: 0.18, -0.84, nd, -0.55, -0.42, nd
* KVSQGWLQESRNANNVA, NASQREN, QQYHRLPLS: -0.45, -0.59, -0.61, -0.85, -0.45, -0.58
* KLVGPDDNDNQDMRAVA, DVNTLGN, QQYHRLPLD: 0.84, 0.61, 0.94, 0.65, 0.75, 0.63
* KVSEFTRGLMSRQDSIA, DNVTRSN, QQYDRLPLS: nd, nd, nd, nd, 2.56, nd
* MLSQMWALGMKVSNSVA, QASMRFE, QQYERLPLI: 1.37, 1.86, 2.20, 0.93, 2.14, 1.95
* NMNVSEDQWPSSKNAIA, QTTCRNL, QQYASLPLS: 1.59, 1.56, 2.92, 1.33, 1.19, 1.27
* KLLQEVTGHSRNRYSVA, HNSTRED, QQYDRLPLS: nd, nd, nd, 2.29, nd, nd

Extract of 6 entries:

CDR-L1	CDR-L2	CDR-L3	log10 Kd (nM) by replicate
RVQMGDQPGKTARNNIA	DGEEGYR	QQYVRLPLS	0.49, 0.53, 0.43, 0.35, 0.42, 0.51
MISQLFMYGSRNYNSVA	QASTRES	QQYHRLPLI	0.87, 0.86, 0.82, 1.17, 1.61, 1.33
KIGMTLNQLMHQKQNVA	DLVTREN	QQYHRLPLS	0.42, -0.11, 0.18, 0.00, 0.10, 0.48
HIDWYNRGETLKKDDIA	NATHREQ	QQYFHLPLI	0.34, 0.33, 0.22, 0.15, 0.41, 0.70
KITYVGESMHLKEDSIA	DQECRED	QQYDRLPLS	2.55, nd, nd, nd, 2.01, 1.82
KLYQSEWYESRMCNSVA	NASVREC	QQYHRLPLS	1.63, 1.23, 1.67, 1.22, 1.76, 1.59

Reference: Li et al. 2023, doi:10.1038/s41467-023-39022-2. File: FLAb, binding data.